Where “and” joins values, the source holds several entries; their conditions need not be identical. Equal entries are not always repeated.
Legend:
human PBMCs = assay: Proliferation of anti-CD3/anti-CD28 stimulated PBMCs (120 h); type: cell-based; parameters: unit not given here; details: +10 μM RapaBlock
FKBP12 = FKBP12 (Homo sapiens, UniProt P62942); assay: Competition fluorescence polarization assay with FITC-rapamycin tracer; details: for Kd: Kd (FKBP12), recombinant FKBP12, Extended Data Fig. 2
476 purified kinases = molecular target: T1, 476 purified kinases (Homo sapiens, UniProt P29320); details: 10 nM compound
T1 sequence (P29320 21-983): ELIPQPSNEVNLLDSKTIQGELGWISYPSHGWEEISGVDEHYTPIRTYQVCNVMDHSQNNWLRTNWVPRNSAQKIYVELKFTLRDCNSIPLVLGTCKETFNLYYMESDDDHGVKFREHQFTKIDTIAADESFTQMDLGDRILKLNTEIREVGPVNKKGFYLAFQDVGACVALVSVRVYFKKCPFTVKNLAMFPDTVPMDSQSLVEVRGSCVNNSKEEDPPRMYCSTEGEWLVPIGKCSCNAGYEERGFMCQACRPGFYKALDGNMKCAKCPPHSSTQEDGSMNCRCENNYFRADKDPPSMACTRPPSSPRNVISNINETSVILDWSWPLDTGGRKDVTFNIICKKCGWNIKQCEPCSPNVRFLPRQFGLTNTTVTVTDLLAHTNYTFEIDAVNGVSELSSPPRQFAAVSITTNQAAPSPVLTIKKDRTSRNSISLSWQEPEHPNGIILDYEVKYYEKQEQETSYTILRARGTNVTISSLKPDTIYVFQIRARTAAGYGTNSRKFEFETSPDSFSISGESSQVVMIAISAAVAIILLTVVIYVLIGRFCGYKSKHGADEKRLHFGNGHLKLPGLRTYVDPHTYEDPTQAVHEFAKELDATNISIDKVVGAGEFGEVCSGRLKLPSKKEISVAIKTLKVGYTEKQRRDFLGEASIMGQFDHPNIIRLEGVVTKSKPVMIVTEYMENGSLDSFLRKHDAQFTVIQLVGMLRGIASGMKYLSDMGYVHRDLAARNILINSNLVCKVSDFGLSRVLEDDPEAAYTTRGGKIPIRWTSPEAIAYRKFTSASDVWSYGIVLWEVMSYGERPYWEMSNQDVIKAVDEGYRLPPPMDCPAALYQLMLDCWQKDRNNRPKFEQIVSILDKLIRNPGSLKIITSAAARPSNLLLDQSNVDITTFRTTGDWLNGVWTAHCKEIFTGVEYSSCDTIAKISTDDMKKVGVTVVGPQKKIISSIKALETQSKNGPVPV

By UniProt entry, the sequences of proteins in these tests, tags left out.
UniProt P62942, whole entry: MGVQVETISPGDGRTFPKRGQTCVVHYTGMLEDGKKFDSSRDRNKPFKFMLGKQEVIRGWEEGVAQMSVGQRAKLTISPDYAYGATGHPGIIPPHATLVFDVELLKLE

SMILES: CO[C@H]1C[C@@H]2CC[C@@H](C)[C@@](O)(O2)C(=O)C(=O)N2CCCC[C@H]2C(=O)O[C@H]([C@H](C)C[C@@H]2CC[C@@H](O)[C@H](OC)C2)CC(=O)[C@H](C)/C=C(\C)[C@@H](O)[C@@H](OC)C(=O)[C@H](C)C[C@H](C)/C=C/C=C/C=C/1C [Rapamycin]
- PBMC cell proliferation (human PBMCs; 0.005081 nM Rapamycin): 101.1 and 101.4
- PBMC cell proliferation (human PBMCs; 0.015242 nM Rapamycin): 108.2 and 104.6
- PBMC cell proliferation (human PBMCs; 0.045725 nM Rapamycin): 102.4 and 107.7
- PBMC cell proliferation (human PBMCs; 0.137174 nM Rapamycin): 110.4 and 105.5
- PBMC cell proliferation (human PBMCs; 0.411523 nM Rapamycin): 111.8 and 104.3
- PBMC cell proliferation (human PBMCs; 1.23457 nM Rapamycin): 114.6 and 108.6 and 104.2
- PBMC cell proliferation (human PBMCs; 3.7037 nM Rapamycin): 106.2

SMILES: CCC(C)(C)C(=O)C(=O)N1CCCC[C@H]1C(=O)O[C@H](CCc1ccc(OC)c(OC)c1)c1cccc(NC(=O)[C@H](C)N)c1 [Compound 01-059]
- Kd (FKBP12): 14 nM

SMILES: CCC(C)(C)C(=O)C(=O)N1CCCC[C@H]1C(=O)O[C@H](CCc1ccc(OC)c(OC)c1)c1cccc(N)c1 [SLF]
- Ki (FKBP12; FKBP12 Ki, Fig. 2d, fluorescein-labelled rapamycin tracer): 25 nM
- Kd (FKBP12): 23 nM

SMILES: Cc1nc(Nc2ncc(C(=O)Nc3c(C)cccc3Cl)s2)cc(N2CCN(CCO)CC2)n1 [Dasatinib]
- EPHA3 (LanthaScreen Binding) (476 purified kinases): 102

From paper PMC9492542, “Brain-restricted mTOR inhibition with binary pharmacology” (Nature, 2022)
